For one assay, the target named is T1, CCK2R (Homo sapiens, UniProt P32239).
T1 sequence (P32239 1-447): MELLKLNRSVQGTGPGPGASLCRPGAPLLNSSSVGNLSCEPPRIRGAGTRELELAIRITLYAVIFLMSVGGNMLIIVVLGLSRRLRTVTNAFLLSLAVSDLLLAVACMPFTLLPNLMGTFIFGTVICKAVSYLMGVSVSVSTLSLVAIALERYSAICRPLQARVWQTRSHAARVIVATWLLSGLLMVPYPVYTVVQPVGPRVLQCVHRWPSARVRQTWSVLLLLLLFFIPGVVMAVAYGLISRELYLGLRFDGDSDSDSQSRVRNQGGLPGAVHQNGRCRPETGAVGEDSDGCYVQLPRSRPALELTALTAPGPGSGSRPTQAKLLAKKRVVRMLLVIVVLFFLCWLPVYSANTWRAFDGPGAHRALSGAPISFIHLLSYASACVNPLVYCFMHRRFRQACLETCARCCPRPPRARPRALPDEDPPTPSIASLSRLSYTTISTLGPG
Briefly: Competition binding of orthosteric radioligand 125I-CCK, CHO cell membranes.

The target in assay [1] is T2, CCK2R TM2 (T2.61N) (Homo sapiens, UniProt P32239, T111N).
T2 sequence (P32239 1-447 T111N): T1 sequence (P32239 1-447) with T111N
Briefly: 125I-BDZ-2 competition binding, chimeric construct. Particulars: NDB = no detectable binding.

Assay [2] has as its target T3, CCK2R TM6 (V6.51I, Y6.52F) (Homo sapiens, UniProt P32239, V349I/Y350F).
T3 sequence (P32239 1-447 V349I/Y350F): T1 sequence (P32239 1-447) with V349I, Y350F
The assay can be described thus: 125I-CCK competition binding, chimeric construct.

Assay [3] concerns the target T4, CCK2R TM3 (V3.28T, S3.29T) (Homo sapiens, UniProt P32239, S131T/V130T).
T4 sequence (P32239 1-447 V130T/S131T): T1 sequence (P32239 1-447) with V130T, S131T
Briefly: 125I-CCK competition binding, chimeric construct.

Assay [4] has as its target T2, CCK2R TM2 (T2.61N). Briefly: 125I-CCK competition binding, chimeric construct.
Assay [5] addresses T4, CCK2R TM3 (V3.28T, S3.29T). The assay can be described thus: 125I-BDZ-2 competition binding, chimeric construct.

Positions count from the first letter of the chain named.

For `O=C(CN1C(=O)C(NC(=O)Nc2ccccc2)C(=O)N(c2ccccc2)c2ccccc21)Nc1ccccc1` (stereo not drawn), the IC50 at CCK2R was determined as 46.3 ± 10.6 nM; in assay [2], 68.3 ± 9.3 nM; in assay [3] it was 51 ± 2.8 nM; at CCK2R TM2 (T2.61N) [4], 188 ± 31.2 nM; in assay [5] it was 135 ± 12.5 nM. On CCK2R TM2 (T2.61N) [1], the “IC50, 125I-BDZ-2” value is reported as “NDB”.

(Values after article PMC4408270 (Bioorganic & medicinal chemistry letters, 2015).)
